This note sets out measurements from PubChem BioAssay AID811 (The Scripps Research Institute Molecular Screening Center, 2007).

Protein sequences, listed by entry. Tags and fused reporters are not part of them.
UniProt O00206, whole entry, looked up: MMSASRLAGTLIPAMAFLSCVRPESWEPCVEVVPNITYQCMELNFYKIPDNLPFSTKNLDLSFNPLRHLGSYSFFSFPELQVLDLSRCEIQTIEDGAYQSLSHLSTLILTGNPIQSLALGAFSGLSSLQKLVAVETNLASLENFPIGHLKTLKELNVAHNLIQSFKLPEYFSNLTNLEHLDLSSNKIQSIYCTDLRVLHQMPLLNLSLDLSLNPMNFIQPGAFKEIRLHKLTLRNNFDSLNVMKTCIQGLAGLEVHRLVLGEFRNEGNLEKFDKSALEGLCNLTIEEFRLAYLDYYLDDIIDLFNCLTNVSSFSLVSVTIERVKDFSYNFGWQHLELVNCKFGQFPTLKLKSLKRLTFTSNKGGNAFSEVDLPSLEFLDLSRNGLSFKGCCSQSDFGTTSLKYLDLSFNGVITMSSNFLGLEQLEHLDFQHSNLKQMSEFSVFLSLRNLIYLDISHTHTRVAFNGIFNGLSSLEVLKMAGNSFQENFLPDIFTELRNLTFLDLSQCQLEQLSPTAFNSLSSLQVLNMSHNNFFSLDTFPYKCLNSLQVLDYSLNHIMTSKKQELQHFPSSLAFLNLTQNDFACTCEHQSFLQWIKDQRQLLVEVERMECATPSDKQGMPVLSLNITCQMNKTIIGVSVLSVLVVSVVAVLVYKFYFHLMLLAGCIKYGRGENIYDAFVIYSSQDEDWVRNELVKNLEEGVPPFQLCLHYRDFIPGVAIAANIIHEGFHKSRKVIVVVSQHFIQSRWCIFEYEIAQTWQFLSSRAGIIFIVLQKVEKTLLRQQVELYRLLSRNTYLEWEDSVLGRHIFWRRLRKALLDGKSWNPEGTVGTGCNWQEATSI

This is a selection; strong and weak results do not stand in their true shares. The source made the active and inactive calls. No stated cut-off is given here; in the data, active means inhibition above about 45%; inactive means the rest.

The assay concerns the target Toll-like receptor 4 (Homo sapiens) (UniProt O00206). Kind of assay: blocks binding of human TLR4 to MyD88 (AID 811). Conditions: Cell-based TLR4-MyD88 binding inhibition assay; at 10 µM; hits give high values.
The term inhibition denotes the relative decrease from the control value, in per cent. As for `CCOC(=O)/C(=N/Nc1ccc([N+](=O)[O-])cc1)N1CC1`, the inhibition is inactive: -11.9%.
Regarding `O=C(OC1CN2CCC1CC2)c1cccc([N+](=O)[O-])c1` (configuration not stated), the inhibition was inactive: -5.24%.
